Results reported in publication PMC2847587 (Molecular cell, 2010).

Target: T1, FANCA (human (endogenous in HeLa), UniProt O15360 1-1455)
T1 sequence (looked up): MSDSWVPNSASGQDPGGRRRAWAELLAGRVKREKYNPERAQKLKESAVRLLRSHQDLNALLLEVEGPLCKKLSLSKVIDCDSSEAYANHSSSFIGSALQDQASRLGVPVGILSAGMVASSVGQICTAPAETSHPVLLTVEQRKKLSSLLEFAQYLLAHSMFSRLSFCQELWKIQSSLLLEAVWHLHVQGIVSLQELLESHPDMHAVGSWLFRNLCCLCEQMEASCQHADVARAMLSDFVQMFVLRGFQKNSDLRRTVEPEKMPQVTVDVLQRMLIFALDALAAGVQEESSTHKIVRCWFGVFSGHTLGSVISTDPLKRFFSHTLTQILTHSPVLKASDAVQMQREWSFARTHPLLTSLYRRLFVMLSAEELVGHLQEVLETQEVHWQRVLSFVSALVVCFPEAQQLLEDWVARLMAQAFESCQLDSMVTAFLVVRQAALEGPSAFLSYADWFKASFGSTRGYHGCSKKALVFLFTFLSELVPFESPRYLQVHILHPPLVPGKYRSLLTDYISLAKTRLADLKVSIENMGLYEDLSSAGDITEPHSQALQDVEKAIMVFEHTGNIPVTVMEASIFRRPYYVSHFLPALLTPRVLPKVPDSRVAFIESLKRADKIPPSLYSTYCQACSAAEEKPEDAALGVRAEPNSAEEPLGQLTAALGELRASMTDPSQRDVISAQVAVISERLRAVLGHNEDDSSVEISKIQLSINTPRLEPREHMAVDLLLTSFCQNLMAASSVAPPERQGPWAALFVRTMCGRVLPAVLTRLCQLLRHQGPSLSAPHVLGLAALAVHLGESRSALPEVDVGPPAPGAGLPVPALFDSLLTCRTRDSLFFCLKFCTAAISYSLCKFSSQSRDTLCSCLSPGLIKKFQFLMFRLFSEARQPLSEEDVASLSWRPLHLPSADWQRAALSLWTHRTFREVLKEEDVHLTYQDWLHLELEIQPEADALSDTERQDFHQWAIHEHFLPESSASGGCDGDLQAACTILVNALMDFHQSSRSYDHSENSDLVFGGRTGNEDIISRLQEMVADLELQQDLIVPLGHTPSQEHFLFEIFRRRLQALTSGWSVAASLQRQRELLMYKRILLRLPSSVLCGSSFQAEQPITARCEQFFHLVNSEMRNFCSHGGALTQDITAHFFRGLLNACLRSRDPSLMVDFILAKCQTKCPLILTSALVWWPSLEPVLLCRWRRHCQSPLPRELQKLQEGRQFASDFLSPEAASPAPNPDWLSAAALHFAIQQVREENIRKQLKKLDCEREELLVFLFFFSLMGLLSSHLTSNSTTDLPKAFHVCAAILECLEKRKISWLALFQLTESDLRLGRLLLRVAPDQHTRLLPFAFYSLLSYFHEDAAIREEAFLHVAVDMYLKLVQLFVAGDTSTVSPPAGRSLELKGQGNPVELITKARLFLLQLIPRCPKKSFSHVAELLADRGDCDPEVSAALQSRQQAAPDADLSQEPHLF
Assay: immunodepletion

B1: MHF1 (FANCM-associated Histone Fold protein 1) (natural protein, human (endogenous in HeLa), UniProt Q8N2Z9-1 1-138, looked up)
chain: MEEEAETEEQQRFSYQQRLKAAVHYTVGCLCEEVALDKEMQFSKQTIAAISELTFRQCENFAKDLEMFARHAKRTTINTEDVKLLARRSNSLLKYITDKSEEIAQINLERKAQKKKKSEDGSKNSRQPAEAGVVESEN
percent co-depleted: < 30%

B2: MHF2 (FANCM-associated Histone Fold protein 2) (natural protein, human (endogenous in HeLa), UniProt A8MT69 1-81, looked up)
chain: MEGAGAGSGFRKELVSRLLHLHFKDDKTKVSGDALQLMVELLKVFVVEAAVRGVRQAQAEDALRVDVDQLEKVLPQLLLDF
percent co-depleted: < 30%
